Experimental data as given in patent US20080214563A1, “Benzimidazole Thiophene Compounds As Plk Modulators” (priority 2005, published 2008).
Marks after values point to notes of the source that are not given here.

Chains of the proteins cited; added tags and fusions are not shown. Residues count along the entry.
UniProt P53350, 21-346 limits assumed: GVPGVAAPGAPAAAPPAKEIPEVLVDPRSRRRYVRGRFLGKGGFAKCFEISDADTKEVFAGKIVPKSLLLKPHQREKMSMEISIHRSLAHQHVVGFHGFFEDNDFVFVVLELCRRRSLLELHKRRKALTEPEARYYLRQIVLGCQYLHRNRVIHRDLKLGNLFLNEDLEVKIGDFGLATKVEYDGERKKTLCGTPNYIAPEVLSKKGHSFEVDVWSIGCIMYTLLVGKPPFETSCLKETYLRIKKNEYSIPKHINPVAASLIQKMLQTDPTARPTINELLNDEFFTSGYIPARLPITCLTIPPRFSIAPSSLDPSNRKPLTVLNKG

How the values were obtained:
[1] = biological target: PLK1 kinase domain (Homo sapiens, UniProt P53350); assay: Assay for Inhibition of PLK1 (33P SPA kinase assay); format: biochemical; settings: 2 nM PLK1 kinase domain, 1 μM ATP
[2] = system: HCT116; assay: Methylene Blue Cell Growth Inhibition Assay, HCT116; settings: read-out: MEB HCT116 IC50, 72 h
[3] = system: H460; assay: Methylene Blue Cell Growth Inhibition Assay, H460; settings: read-out: MEB H460 IC50, 72 h
[4] = system: MCF7; assay: Methylene Blue Cell Growth Inhibition Assay, MCF7; settings: read-out: MEB MCF7 IC50, 72 h
[5] = system: A549; assay: Methylene Blue Cell Growth Inhibition Assay, A549; settings: read-out: MEB A549 IC50, 72 h
[6] = system: RKO; assay: Methylene Blue Cell Growth Inhibition Assay, RKO; settings: read-out: MEB RKO IC50, 72 h
[7] = Intravenous pharmacokinetics in CD-1 mouse; settings: iv bolus, male CD-1 mouse; for Plasma CL: dose 1.9-7.4 mg/kg per compound (Table 3)
[8] = system: Normal human foreskin fibroblasts (HFF); assay: Methylene Blue Cell Growth Inhibition Assay, HFF; settings: read-out: MEB HFF IC50, 72 h
[9] = system: MX-1; assay: Methylene Blue Cell Growth Inhibition Assay, MX-1; settings: read-out: MEB MX-1 IC50, 72 h
[10] = system: HCT-116; assay: Cell-Titer Glo Cell Growth Inhibition Assay, HCT116; settings: read-out: CTG HCT116 IC50, CellTiter-Glo, 72 h
[11] = system: Colo 205; assay: Cell-Titer Glo Cell Growth Inhibition Assay, COLO205; settings: read-out: CTG COLO205 IC50, CellTiter-Glo, 72 h
[12] = system: A549-L; assay: Cell-Titer Glo Cell Growth Inhibition Assay, A549-L; settings: read-out: CTG A549-L IC50, CellTiter-Glo, 72 h
[13] = system: HT29; assay: Cell-Titer Glo Cell Growth Inhibition Assay, HT29; settings: read-out: CTG HT29 IC50, CellTiter-Glo, 72 h
[14] = system: SKOV3; assay: Cell-Titer Glo Cell Growth Inhibition Assay, SKOV-3; settings: read-out: CTG SKOV-3 IC50, CellTiter-Glo, 72 h
[15] = system: MX-1; assay: Cell-Titer Glo Cell Growth Inhibition Assay, MX-1; settings: read-out: CTG MX-1 IC50, CellTiter-Glo, 72 h
[16] = system: Hela; assay: Cell-Titer Glo Cell Growth Inhibition Assay, Hela; settings: read-out: CTG Hela IC50, CellTiter-Glo, 72 h
[17] = system: MCF7; assay: Cell-Titer Glo Cell Growth Inhibition Assay, MCF7; settings: read-out: CTG MCF7 IC50, CellTiter-Glo, 72 h
[18] = system: MDA-MB468; assay: Cell-Titer Glo Cell Growth Inhibition Assay, MDA-MB468; settings: read-out: CTG MDA-MB468 IC50, CellTiter-Glo, 72 h
[19] = system: H1299; assay: Cell-Titer Glo Cell Growth Inhibition Assay, H1299; settings: read-out: CTG H1299 IC50, CellTiter-Glo, 72 h

| IC50 [2] | IC50 [3] | IC50 [4] | IC50 [5] | Plasma CL [7] | Structure (SMILES) | IC50 [6] | IC50 [8] | other results |
| --- | --- | --- | --- | --- | --- | --- | --- | --- |
| < 100 nM | < 100 nM | < 100 nM | < 100 nM | 98.6 mL/min/kg | COc1cc2ncn(-c3cc(O[C@H](C)c4ccccc4C(F)(F)F)c(C(N)=O)s3)c2cc1OC | < 100 nM |  | PLK1 pIC50 [1]: +++ (pIC50>8); AUC (0-t), 0-1 h ([7]; 2.5 mg/kg, 0-1 h): 400** ng * h/mL |
| > 1000 nM | > 1000 nM | > 1000 nM | > 1000 nM |  | COc1cc2ncn(-c3cc(O[C@@H](C)c4ccccc4Cl)c(C(N)=O)s3)c2cc1OC | > 1000 nM | > 1000 nM |  |
| < 100 nM | < 100 nM | < 100 nM | < 100 nM | 90.85 mL/min/kg | COc1cc2ncn(-c3cc(O[C@H](C)c4ccccc4Cl)c(C(N)=O)s3)c2cc1OC | < 100 nM | 100 to 1000 nM | IC50 [9]: < 100 nM; IC50 [10]: < 100 nM; IC50 [11]: < 100 nM; IC50 [12]: < 100 nM; IC50 [13]: < 100 nM; IC50 [14]: < 100 nM; IC50 [15]: < 100 nM; IC50 [16]: < 100 nM; IC50 [17]: < 100 nM; IC50 [18]: < 100 nM; IC50 [19]: < 100 nM; AUC (0-t), 0-4 h ([7]; 4 mg/kg, 0-4 h): 730* ng * h/mL |
